Experimental data published in patent publication US9139577B2, “Sulfoximine substituted quinazolines for pharmaceutical compositions” (Boehringer Ingelheim International GmbH, priority 2013, dated 2015).
Read-outs that look alike come from different tables or passages of the source.

Chains of the proteins cited; added tags and fusions are not shown.
UniProt Q9BUB5, whole entry: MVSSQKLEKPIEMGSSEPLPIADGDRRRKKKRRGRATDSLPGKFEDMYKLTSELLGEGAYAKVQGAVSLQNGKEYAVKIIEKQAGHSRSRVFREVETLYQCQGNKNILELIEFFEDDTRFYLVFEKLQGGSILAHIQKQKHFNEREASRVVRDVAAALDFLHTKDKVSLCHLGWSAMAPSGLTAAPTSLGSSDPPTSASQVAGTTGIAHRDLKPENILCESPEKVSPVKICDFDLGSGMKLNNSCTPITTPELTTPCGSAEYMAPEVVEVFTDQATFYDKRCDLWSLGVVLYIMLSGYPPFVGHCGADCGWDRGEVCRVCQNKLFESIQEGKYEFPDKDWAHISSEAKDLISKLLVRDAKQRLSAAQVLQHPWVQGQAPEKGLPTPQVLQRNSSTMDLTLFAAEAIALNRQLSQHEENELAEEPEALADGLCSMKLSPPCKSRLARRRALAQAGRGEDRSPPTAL

Biological target: MNK1 (Homo sapiens (Human), UniProt Q9BUB5)
Assay: MNK1 in vitro kinase assay (Assay 3), Z'-LYTE
Format: biochemical
[1] = compound concentration of 1 μM, assay 3

Row | MNK1 % INH [1] | SMILES | MNK1 % INH
1 |  | Cc1cc(N=S(C)(C)=O)cc2ncnc(Nc3ccc(F)cc3OC(C)C(F)(F)F)c12 (single isomer, unassigned) [7.002] | 73%
2 | 51% | Cc1cc(N=S(C)(C)=O)cc2ncnc(Nc3ccc(F)cc3OC(C)C#N)c12 (single isomer, unassigned) [7.004] | 
3 | 67% | CC(Oc1cc(F)ccc1Nc1ncnc2cc(N=S(C)(C)=O)cc(F)c12)C(F)(F)F (single isomer, unassigned) [7.007] | 
